Earlier results as cited in publication PMC11774939, “Optimizing lipopeptide bioactivity: The impact of non-ionic surfactant dressing” (Journal of Pharmaceutical Analysis, 2024).

Columns and labels:
[1] = approved drug characteristics; cited from earlier work
Text: Supplement mmc1.docx, table 1: Table S1. Lipopeptide-based drugs, with their characteristics, disease target, and the year of approval. | column: Half-life (h); Route of elimination

[2] = approved drug characteristics; cited from earlier work; remark: listed apart in the source
Text: Supplement mmc1.docx, table 1: Table S1. Lipopeptide-based drugs, with their characteristics, disease target, and the year of approval. | column: Plasma protein binding

| Substance | Half-life [1] | Route of elimination [1] | Plasma protein binding [2] |
| --- | --- | --- | --- |
| Colistimethate | 2 to 3 h | Mainly urinary excretion | – |
| Liraglutide | 13 h | Urinary and fecal excretion | 98% |
| Dalbavancin | 346 h | – | – |
| Semaglutide | 168 h | Urinary and fecal excretion | >99% |
| Daptomycin | 7.5 to 9 h | – | – |
| Tirzepatide | 120 h | Urinary and fecal excretion | 99% |
